Consider 4 compounds from US6057371A, “Sigma receptor ligands and the use thereof” (Virginia Commonwealth University, priority 1992, dated 2000).

By UniProt entry, the sequences of proteins in these tests, tags left out. Residues count along the entry.
UniProt H0V073, 1-176: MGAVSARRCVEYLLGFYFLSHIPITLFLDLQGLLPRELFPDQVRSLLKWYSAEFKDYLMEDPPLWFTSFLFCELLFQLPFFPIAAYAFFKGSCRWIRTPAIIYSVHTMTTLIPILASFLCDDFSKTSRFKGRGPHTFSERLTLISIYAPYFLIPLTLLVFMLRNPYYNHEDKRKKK
UniProt Q60492, whole entry: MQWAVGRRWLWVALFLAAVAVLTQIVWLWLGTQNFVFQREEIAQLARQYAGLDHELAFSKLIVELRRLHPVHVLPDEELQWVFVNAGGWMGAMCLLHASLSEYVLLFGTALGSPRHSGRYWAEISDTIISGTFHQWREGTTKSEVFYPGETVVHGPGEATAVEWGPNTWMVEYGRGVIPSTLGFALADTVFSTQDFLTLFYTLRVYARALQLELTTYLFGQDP

One assay has as its target T1, sigma-2 binding site (Cavia porcellus, UniProt H0V073).
T1 construct: Guinea pig whole membrane preparations (P2 microsomal fraction); from tissue; host or cells: guinea pig membranes (P2 microsomal fraction), as described by Weber et al; brain inferred from the sister test b489
Kind of assay: biochemical. The note with it: SIGMA-2 KI vs. 3H-DTG + P[…]. Also on record: species or system guinea pig.

A further assay deals with T2, sigma-1 binding site (Cavia porcellus, UniProt Q60492).
T2 construct: Guinea pig whole membrane preparations (P2 microsomal fraction); from tissue; host or cells: guinea pig membranes (P2 microsomal fraction), as described by Weber et al; brain inferred from the sister test b489
In words: biochemical. Details: species or system guinea pig. The method, then:
[^3 H]DTG was purchased from DuPont/NEN.
The radioactivity on the filters was determined by scintillation spectrometry at an efficiency of about 50% using Cytoscint (ICN) scintillation fluid.

`CC(C)=CCN1CCC2(C)c3cc(O)ccc3CC1C2C` (single isomer, unassigned; (+)) [(+)Pentazocine, reference compound]: at sigma-2 binding site, the inhibition constant (Ki) is 906 nM.
For the compound `CC(C)=CCN1CCC2(C)c3cc(O)ccc3CC1C2C` (single isomer, unassigned; (-)) [(-)Pentazocine, reference compound], the Ki at sigma-2 binding site was 242 nM.
As for `OC(CCCN1CCN(c2ncc(F)cn2)CC1)c1ccc(F)cc1` (stereo not shown) [BMY-14802, reference compound], the Ki at sigma-1 binding site (Table 10, read-out: SIGMA-1 KI vs. 3H-PENTAZOCINE MEAN) came out at 271 nM.
Regarding `OCCN1CCN(CCCN2c3ccccc3Sc3ccc(C(F)(F)F)cc32)CC1` [Fluphenazine, reference compound], at sigma-1 binding site (guinea pig, microsomes), the “S1/S2 Ratio” value was 0.470.

The Ki is a dissociation constant, usually derived from enzyme kinetics or from competition with a known ligand.
